What was measured:
UNG-CD = experiment: Inhibition of UNG-CD uracil excision by RPA pre-incubated with ssDNA; format: biochemical, human; conditions: 0.2 nM UNG-CD; 100 nM U10-25* ssDNA pre-incubated with RPA; data not shown
Description: (§1) Based on this, 10-fold molar excess of RPA over substrate was employed in subsequent experiments unless otherwise stated. DNA substrate (100 nM final) and RPA (1 μM final) were mixed and incubated on ice for 15 min to form RPA/ssDNA complexes. Varying amounts of UNG were then added, and the mixtures incubated for 10 min in a water bath. To avoid unspecific interactions and binding of enzyme and DNA to the assay tube surface, low-DNA binding tubes and excess of BSA was used in all reactions. Reactions were quenched and AP sites cleaved in 10% piperidine at 90°C for 20 min. Samples were dried by vacuum centrifugation and suspended in formamide-containing loading buffer. Product and substrate were separated in 12% PAGE/7M urea–0.5× TBE gels, bands visualised in ChemiDoc™ Imager (Bio-Rad) and quantified by Image Lab software (Bio-Rad). Importantly, all assays in which two parameters were compared (e.g. RPA-coated versus naked substrate or WT versus mutated protein) were performed in parallel with the exact same DNA/protein dilutions.

UNG2 = UNG2 uracil excision from ssDNA preincubated with RPA-WT or RPA-ΔWH; format: biochemical, human; conditions: 100 nM ssDNA, 0-400 nM RPA (WT or ΔWH); three independent experiments
Description: 3′-FAM-labelled, PAGE-purified oligonucleotide substrates were from Sigma-Aldrich. Unless otherwise indicated, the substrate (25 nt) harboured uracil at position 10 in a polyC sequence to avoid secondary structures (U10-25*: […]-FAM). Double-stranded substrate was generated by annealing (heating followed by slow cooling) U10-25* to a non-labelled complementary oligo (A16-25: […]). All assays were performed at 22°C in 10 mM Tris–HCl pH 7.5, 50 mM NaCl, 1 mM DTT, 0.1 mM EDTA, 0.5 mg/ml BSA.
as §1, with “Importantly, all assays in which two parameters were compared (e.g. RPA-coated versus naked substrate or WT versus mutated protein) were performed in parallel with the exact same DNA/protein dilutions.” left out

RPA: recombinant human trimeric replication protein A
RPA concentration that fully abolished uracil excision (UNG-CD): > 400 nM | effect on UNG2 uracil excision from ssDNA (UNG2): no decrease in uracil excision

Reference: article PMC8053108, “RPA2 winged-helix domain facilitates UNG-mediated removal of uracil from ssDNA; implications for repair of mutagenic uracil at the replication fork” (Nucleic Acids Research, 2021)
